Results as given in ChEMBL document CHEMBL2177047, “Design, synthesis, and pharmacological evaluation of bis-2-(5-phenylacetamido-1,2,4-thiadiazol-2-yl)ethyl sulfide 3 (BPTES) analogs as glutaminase inhibitors” (J Med Chem, 2012).

Assay: Cytotoxicity against human P493 cells assessed as growth inhibition by trypan blue dye exclusion assay
Format: functional, cell-based
Conditions: P493-6

Nc1nnc(CCSCCc2nnc(NC(=O)Cc3ccccc3)s2)s1
IC50: ≤ 20 µM
